Assay results reported in PMC6282072.

Assays:
[1] = molecular target: porcine cardiac ventricular myosin (βmys) (porcine) (UniProt P79293)
[2] = molecular target: porcine cardiac ventricular myosin (βmys) (porcine) (UniProt P79293); remark: listed apart in the source

actin-activated myosin ATPase, Km (0.6 µM myosin titrated with 1–50 µM F-actin, 25 mM KCl, 21°C) [1]: 5.2 µM | actin-activated myosin ATPase, Km (value of the running text) [2]: 5.29 µM
Substance: rabbit skeletal actin (from UniProt P68135 1-377) (natural protein)
